Test results published in ChEMBL document CHEMBL1649231, “In vitro activities of panduratin A against clinical Staphylococcus strains” (2009).

System: Staphylococcus aureus
Assay: Antimicrobial activity against methicillin-resistant Staphylococcus aureus after 24 hrs by broth microdilution method
Type: functional
Summary of the method: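 Clinical isolates came from blood, body fluids, genital secretions, pus or sputum, identified conventionally or by Vitek. MICs were run by CLSI M7-A6 broth microdilution in Mueller-Hinton broth with 5 × 10^5 CFU/ml inoculum. Agents were twofold serially diluted, starting from 10% DMSO. Drug-free and uninoculated controls were included. Plates were incubated aerobically at 37°C for 24 h; MIC is the lowest concentration giving no visible growth.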

Sequence: GENTAMICIN
- MIC: 0.5 mg/L
